The numbers were not newly measured in US20240315989A1 (priority 2021, published 2024), which cites them from elsewhere.

The chains behind the UniProt entries cited, without tags or fusion partners.
UniProt Q99720, whole entry: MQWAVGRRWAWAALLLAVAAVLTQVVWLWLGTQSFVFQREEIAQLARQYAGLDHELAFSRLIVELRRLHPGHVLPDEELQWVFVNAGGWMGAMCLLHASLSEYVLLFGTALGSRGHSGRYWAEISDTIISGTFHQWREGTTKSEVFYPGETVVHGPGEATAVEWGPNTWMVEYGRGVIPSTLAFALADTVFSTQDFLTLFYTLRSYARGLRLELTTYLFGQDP

Broadly, the pKi is the negative decadic logarithm of the Ki, by convention in mol/L.

pKi: −log10 of the molar value.

Series [1] has as its target T1, σ1 site (Homo sapiens, UniProt Q99720). Conditions: read-out: Affinity for σ1 Site (Ki or KD values); cited from earlier work.
Series [2] concerns the target T1, σ1 site. Conditions: cited from earlier work.

On to (+)-SKF-10,047, for which the pKi at σ1 site [1] was over 7.30. Moreover, the “Function on σ1 Site” value on σ1 site [2] was “Agonist”.
For Pregnenolone sulfate, the pKi on σ1 site [1] is over 5.00.
